Data reported in patent publication US11319341B2, “Immune-stimulating soluble doxorubicin-conjugated complex” (Yafei (Shanghai) Biopharmaceutical Co., Ltd., priority 2016, dated 2022).

Key:
[1] = tested on: CT26 tumor cells; assay: CT26 tumor immune model: inhibition of tumor; type: in vivo; details: CT26 subcutaneous tumor, BALB/c mice, compounds 18 μmol/kg, mouse PD-1 antibody 5 mg/kg
Description: Test purpose: to investigate the anti-tumor efficacy of different compounds in CT26 cancer model for immune treatment.
(§1) Test drug: QHL-096, QHL-087, QHL-090, QHL-093, QHL-117 and controls, all used in 18 μmol/kg; mouse PD-1 antibody, 5 mg/kg.
1) CT26 tumor cells were purposed from ATCC.
(§2) Mice were randomly grouped after the tumor reached at least 100 mm^3 Then treatment began and the day on which the treatment began was day 1.

[2] = tested on: tumor CD8+ T cells; assay: CT26 tumor immune model: tumor CD8+ T cells (CD8 positive in CD45 positive cells, flow cytometry); type: in vivo, BALB/c mice; details: ratio of CD8 positive cells in CD45 positive cells in tumor, compounds 18 μmol/kg, PD-1 antibody 5 mg/kg
Description: as §1, §2
3) Analysis on tumor CD8+ T cells. The tumor tissue was homogenated and individual cells in the tumor were filtered, separated and washed by buffer twice, then cultivated with the leucocyte common antigen CD45-PE and CD8-FITC marked antibodies for 1 hour at ambient temperature. The cells were washed by phosphate buffer containing 1% fetal bovine serum twice and then analyzed for the ratio of the T lymphocyte antigen (CD8) positive cells in the leucocyte common antigen (CD45) positive cells by flow cytometry. Increasement of the ratio indicates increased T lymphocyte cells and thus the animal immunity against the tumor was improved.

Substance: PD-1
- inhibitory rate on tumor % Day 18 ([1]; Day 18 as printed): 16.6%
- Size of tumor (mm^3) Day 28 ([1]; Day 28): 1574.6 ± 474.5 mm^3
- CD8:CD45 (%) [2]: 6.1%
